Measurements from patent US7473681B2, “Kahalalide F” (Pharma Mar, S.A., priority 2000, dated 2009).

Details: glass infusion containers, room temperature (+20-25° C., in the dark)

C/C=C1\NC(=O)[C@H](Cc2ccccc2)NC(=O)[C@@H](C(C)C)NC(=O)[C@@H](C(C)CC)NC(=O)[C@H](NC(=O)C(NC(=O)[C@H](CCCN)NC(=O)[C@H]2CCCN2C(=O)[C@H](NC(=O)[C@@H](NC(=O)[C@@H](NC(=O)[C@H](NC(=O)CCCC(C)C)C(C)C)C(C)O)C(C)C)C(C)C)C(C)CC)C(C)OC(=O)[C@H](C(C)C)NC1=O (single isomer, unassigned) [Kahalalide F, kahalalide F]
stability of infusion solutions: at least 5 days
